Laboratory results reported in patent publication US10675268B2, “Somatostatin receptor subtype 4 (SSTR4) agonists” (Centrexion Therapeutics Corporation, priority 2013, dated 2020).

Experiment: Metabolic stability in pooled human liver microsomes (half-life)
Format: in vitro ADME
Conditions: 37° C., 1 μM test compound
Experimental: The metabolic stability of the compounds according to the invention may be investigated as follows:
The metabolic degradation of the test compound is assayed at 37° C. with pooled human liver microsomes. The final incubation volume of 100 μl per time point contains TRIS buffer pH 7.6 at room temperature (0.1 M), magnesium chloride (5 mM), microsomal protein (1 mg/mL) and the test compound at a final concentration of 1 μM. Following a short preincubation period at 37° C., the reactions are initiated by addition of beta-nicotinamide adenine dinucleotide phosphate, reduced form (NADPH, 1 mM), and terminated by transferring an aliquot into solvent after different time points. After centrifugation (10000 g, 5 min), an aliquot of the supernatant is assayed by LC-MS/MS for the amount of parent compound. The half-life is determined by the slope of the semi-logarithmic plot of the concentration-time profile.

| SMILES | Half-life t1/2 [h] |
| --- | --- |
| Cc1nnc(C(C)(C)NC(=O)[C@H]2[C@@H]3CNC[C@@H]32)c2ccccc12 [Example 77] | >2.17 |
| CC(C)(NC(=O)[C@H]1[C@@H]2CNC[C@@H]21)c1noc2c(Cl)cccc12 [Example 103] | >2.17 |
| CC(C)(NC(=O)[C@H]1[C@@H]2CNC[C@@H]21)c1ncnc2ccccc12 [Example 89] | >2.17 |
| Cc1cccc2c(C(C)(C)NC(=O)[C@H]3[C@@H]4CNC[C@@H]43)noc12 [Example 92] | >2.17 |
| CC(C)(NC(=O)[C@H]1[C@@H]2CNC[C@@H]21)c1cncc2ccccc12 [Example 90] | >2.17 |
| CC(C)(NC(=O)[C@H]1[C@@H]2CNC[C@@H]21)c1noc2c(C3CC3)cccc12 [Example 104] | >2.17 |
